Assay results as given in patent US11439607B2, “Use of senicapoc for treatment of neuropathic pain” (Paracelsus Neuroscience I, LLC, priority 2016, dated 2022).

Biological target: human KCa3.1 (Homo sapiens, UniProt O15554)
Experiment: QPatch electrophysiology on CHO-K1 cells expressing recombinant human KCa3.1
Format: cell-based
Conditions: read-out: IC50, patch-clamp on CHO-KCa3.1 cells

IC50: 10 nM
Compound: NC(=O)C(c1ccccc1)(c1ccc(F)cc1)c1ccc(F)cc1 [Senicapoc]
